Measurements as given in patent EP4831184A1, “SALT OF NITROGEN HETEROARYL COMPOUND, CRYSTAL FORM OF SAID SALT, PREPARATION METHOD THEREFOR, AND USE THEREOF” (dated 2026).
Where a name gives a salt, the structure may show the parent alone.

Experiments:
[1] = Salt formation / salt crystal form screening with acids and solvents
Description: Following the procedures in Example 1 of the present application, the compound represented by formula (I) was mixed with the acids and solvents shown in the table below, yet no crystal forms of salts were obtained.

[2] = Stability of related substances (light exposure, high temperature, high humidity; open containers); details: for stability of related substances, High humidity: high humidity 25 °C, RH 90% ± 5%; for stability of related substances, High humidity / stability of related substances, 60 °C / stability of related substances, Light exposure: open container; for stability of related substances, 60 °C: high temperature 60 °C; for stability of related substances, Light exposure: light exposure 5000 Lux ± 500 Lux
Experimental: (§1) Samples of the crystal form A of the compound represented by formula (I), the crystal form B of the compound represented by formula (I), the crystal form I of the p-toluenesulfonate of the compound represented by formula (I), and the crystal form I of the hydrochloride of the compound represented by formula (I) were separately spread out and left to stand in open containers, and subjected to 10-day and 30-day stability tests under light exposure (5000 Lux ± 500 Lux), high temperature (60 °C), and high humidity (25 °C, RH 90% ± 5%) conditions to investigate the stability of related substances. Table 6. Comparison of stability data of related substances under different conditions

[3] = Crystal form stability test (light exposure, high temperature, high humidity; open containers); details: for Crystal form after standing, High humidity / Crystal form after standing, 60 °C / Crystal form after standing, Light exposure: open container, 30 days; for Crystal form after standing, High humidity: 25 °C, RH 90% ± 5%; for Crystal form after standing, 60 °C: high temperature 60 °C; for Crystal form after standing, Light exposure: light exposure 5000 Lux ± 500 Lux
Experimental: as §1, with “the crystal forms.” for “related substances.”, “5.” for “6.”, “crystal forms after standing for 30 days” for “related substances”

[4] = Pharmacokinetic experiment, single oral gavage; details: Beagle dogs
Description: Number of animals: 6 Beagle dogs per group, half male and half female.
Grouping method: Dogs were randomly grouped by sex based on body weight.
(§2) A sample of the crystal form B of the compound represented by formula (I) was taken and added to a mixed solution of Solutol HS 15 and 20% HP-β-CD, and the resulting mixture was well mixed by ultrasonication and vortexing to give the desired reagent. Post-preparation storage condition and shelf life: the prepared reagent could be temporarily stored in a refrigerator at 2-8 °C for 3 h.
A sample of the crystal form I of the p-toluenesulfonate of the compound represented by formula (I) was taken and added to a mixed solution of Solutol HS 15 and 20% HP-β-CD, and the resulting mixture was well mixed by ultrasonication and vortexing to give the desired reagent.
as §2, with “I of the p-toluenesulfonate” for “B”, “SBE-β-CD” for “Solutol HS 15”, “50 mM sodium acetate (pH 4.61),” for “20% HP-β-CD,”
Administration dose: 10 mg/kg, calculated based on the content of the compound represented by formula (I).
Administration concentration: 2 mg/mL.
Administration volume: 5 mL/kg.
Administration frequency: single administration.
Administration route: oral gavage.
Sampling time points: before administration, and 15 min (± 1 min), 30 min (± 1 min), 1 h (± 2 min), 2 h (± 2 min), 4 h (± 5 min), 8 h (± 5 min), and 24 h (± 20 min) after administration.
Sampling animals: all surviving dogs in each group.
Sampling site: forelimb vein or other suitable veins.
Sampling amount: about 0.5 mL, with heparin sodium as an anticoagulant.
Blood sample treatment: The collected blood samples were each added into a centrifuge tube containing the anticoagulant and mixed well with the anticoagulant by gentle shaking. The whole blood samples were placed in an ice box protected from light before centrifugation. They were then centrifuged at 1800 rpm for 10 min at 2-8 °C within 2 h to separate plasma. The plasma was divided into 2 aliquots and stored at -66 °C or below until analysis.
Data processing and analysis: Pharmacokinetic parameters including Cmax, Tmax, AUClast, and AUC0-∞ were calculated using a non-compartmental model.
Tmax and Cmax were obtained from measured values.
AUC0-t was calculated using the linear trapezoidal method, where t represents the time of the last quantifiable plasma concentration; AUC0−∞ = AUC0−t + Ct /λz , [formula] where Ct represents the plasma concentration at the last time point with a quantifiable concentration, and λz represents the terminal elimination rate constant.

[5] = Crystal form stability under grinding, heating and tableting treatments; details: for crystal form stability: grinding, heating, and tableting treatments
Description: The crystal form I of the p-toluenesulfonate of the compound represented by formula (I) prepared according to the method of Example 1 was subjected to grinding, heating, and tableting treatments. […] Table 8. Stability study of crystal form I of p-toluenesulfonate

[6] = Saturation solubility tests in water and at different pH values
Description: Samples of the prepared crystal form A of the compound represented by formula (I), the prepared crystal form B of the compound represented by formula (I), the crystal form I of the p-toluenesulfonate of the compound represented by formula (I) obtained according to Example 1, and the crystal form I of the hydrochloride of the compound represented by formula (I) obtained according to Example 2 were subjected to saturation solubility tests in water and at different pH values. […] Table 7. Solubility data (mg/mL) under different conditions

[7] = Solvent Acetone, Acid/base (mol/mol) 1.1
[8] = 10 mg/kg single administration, compared with the free base
[9] = Vehicle SBE-β-CD and 50 mM sodium acetate
[10] = Vehicle Solutol HS 15 and 20% HP-β-CD

Row | Structure (SMILES) | Results (salt formation of compound represented by formula (I) with acid) [1, 7] | stability of related substances, High humidity ([2]; 0 days) | stability of related substances, 60 °C ([2]; 0 days) | stability of related substances, Light exposure ([2]; 0 days) | stability of related substances, High humidity ([2]; 10 days) | stability of related substances, 60 °C ([2]; 10 days) | stability of related substances, Light exposure ([2]; 10 days) | stability of related substances, High humidity ([2]; 30 days) | stability of related substances, 60 °C ([2]; 30 days) | stability of related substances, Light exposure ([2]; 30 days) | Crystal form after standing, High humidity [3] | Crystal form after standing, 60 °C [3] | Crystal form after standing, Light exposure [3] | further results
1 | O=S(=O)(O)O | The obtained crystal form product exhibited high hygroscopicity |  |  |  |  |  |  |  |  |  |  |  |  | Results (salt formation of compound represented by formula (I) with acid) ([1]; Solvent Ethanol, Acid/base (mol/mol) 0.5): The crystal form A of the compound represented by formula (I) was obtained, and no salt was formed
2 | CC(=O)O | The crystal form A of the compound represented by formula (I) was obtained, and no salt was formed |  |  |  |  |  |  |  |  |  |  |  |  | 
3 | C[C@H](O)C(=O)O | The crystal form A of the compound represented by formula (I) was obtained, and no salt was formed |  |  |  |  |  |  |  |  |  |  |  |  | 
4 | O=P(O)(O)O |  |  |  |  |  |  |  |  |  |  |  |  |  | Results (salt formation of compound represented by formula (I) with acid) ([1]; Solvent Ethanol, Acid/base (mol/mol) 1.1): The obtained crystal form product exhibited high hygroscopicity
5 | CN(C)Cc1ccc(-c2cnc(NCc3c(F)ccc4c3CCO4)n3cnnc23)c2ncnn12 [Crystal form I of hydrochloride of compound represented by f] |  | 99.84% | 99.84% | 99.84% | 98.84% | 99.51% | 99.60% | 98.80% | 99.32% | 98.61% | Crystal form I of hydrochloride | Crystal form I of hydrochloride | Crystal form I of hydrochloride | 
6 | CN(C)Cc1ccc(-c2cnc(NCc3c(F)ccc4c3CCO4)n3cnnc23)c2ncnn12 [Crystal form I of p-toluenesulfonate of compound represented] |  | 99.44% | 99.44% | 99.44% | 99.44% | 99.44% | 99.08% | 99.44% | 99.42% | 98.95% | Crystal form I of p-toluenesulfonate | Crystal form I of p-toluenesulfonate | Crystal form I of p-toluenesulfonate | AUC [4, 8]: higher; Cmax [4, 8]: higher; exposure [4, 8]: greater; time to peak in vivo [4, 8]: shorter; AUC0-∞ [4, 9]: 2.72 ± 1.17 µg·h/mL; AUClast [4, 9]: 2.68 ± 1.15 µg·h/mL; Cmax [4, 9]: 1.08 ± 0.636 µg/mL; Tmax [4, 9]: 32.4 ± 15 min; AUC0-∞ [4, 10]: 2.22 ± 0.691 µg·h/mL; AUClast [4, 10]: 2.19 ± 0.689 µg·h/mL; Cmax [4, 10]: 0.448 ± 0.123 µg/mL; Tmax [4, 10]: 30 ± 0 min; Crystal form ([5]; after Grinding for 10 min in a mortar): Crystal form I of p-toluenesulfonate; Crystal form ([5]; after Heating at 80 °C for 3 h): Crystal form I of p-toluenesulfonate; Crystal form ([5]; after Tableting): Crystal form I of p-toluenesulfonate; crystal form stability ([5]; listed as crystal form I of the p-toluenesulfonate of the compound of formula (I)): good stability; crystal form stability ([5]; listed as crystal form I of the p-toluenesulfonate of the compound represented by formula): stable; stability of related substances ([2]; high temperature conditions (60 °C), comparison with hydrochloride): superior to that of the crystal form I of the hydrochloride
7 | CN(C)Cc1ccc(-c2cnc(NCc3c(F)ccc4c3CCO4)n3cnnc23)c2ncnn12 [Crystal form B of compound represented by formula (I)] |  | 99.85% | 99.85% | 99.85% | 99.85% | 99.85% | 98.54% | 99.85% | 99.78% | 95.66% | Crystal form B | Crystal form B | Crystal form B | Cmax [4, 10]: 0.378 ± 0.359 µg/mL; Tmax [4, 10]: 78 ± 78 min; Solubility ([6]; Water, saturation solubility): 0.01 mg/mL; Solubility ([6]; pH 1.0, saturation solubility): 0.29 mg/mL; Solubility ([6]; pH 4.5, saturation solubility): 1.85 mg/mL; Solubility ([6]; pH 6.8, saturation solubility): 0.02 mg/mL
8 | O=C(O)CC(O)(CC(=O)O)C(=O)O |  |  |  |  |  |  |  |  |  |  |  |  |  | Results (salt formation of compound represented by formula (I) with acid) ([1]; Solvent Ethanol, Acid/base (mol/mol) 2.1): The obtained crystal form product was poor in crystalline state.
9 | CN(C)Cc1ccc(-c2cnc(NCc3c(F)ccc4c3CCO4)n3cnnc23)c2ncnn12 [Crystal form A of compound represented by formula (I)] |  | 99.85% | 99.85% | 99.85% | 99.83% | 99.82% | 99.11% | 99.84% | 99.70% | 98.16% | Mixed crystal | Crystal form A | Crystal form A | crystal form stability ([3]; high humidity conditions): poor stability; Solubility ([6]; Water, saturation solubility): 0.02 mg/mL; Solubility ([6]; pH 1.0, saturation solubility): 0.29 mg/mL; Solubility ([6]; pH 4.5, saturation solubility): 1.32 mg/mL; Solubility ([6]; pH 6.8, saturation solubility): 0.01 mg/mL
